This test concerns the target Galanin receptor type 2 (Homo sapiens) (UniProt O43603). In words: GALR2 agonists, retest of hits, confirmation, cell-based (AID 864).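 Further: 0% = buffer-only vehicle wells and 100% = full reference agonist response.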 The conditions noted are these: GALR2-expressing cells, agonist activation; at 5.6 µM; active compounds read high.

The chains behind the UniProt entries cited, without tags or fusion partners. Where a name states a change or a piece, a line headed by the entry shows the natural chain unless it says otherwise.
UniProt O43603: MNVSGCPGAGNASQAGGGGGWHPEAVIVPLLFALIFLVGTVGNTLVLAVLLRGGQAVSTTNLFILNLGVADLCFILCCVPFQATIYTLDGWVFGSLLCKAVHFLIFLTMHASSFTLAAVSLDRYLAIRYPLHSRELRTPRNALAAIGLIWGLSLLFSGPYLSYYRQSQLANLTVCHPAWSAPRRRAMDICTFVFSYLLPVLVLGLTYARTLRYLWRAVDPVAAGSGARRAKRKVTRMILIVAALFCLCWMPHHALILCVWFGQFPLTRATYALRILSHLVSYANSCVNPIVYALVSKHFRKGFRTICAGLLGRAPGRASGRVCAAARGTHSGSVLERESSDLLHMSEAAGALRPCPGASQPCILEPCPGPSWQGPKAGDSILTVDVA

The list shows a part of the results, in another mix than the full data. Activity calls are given as the source filed them. No stated cut-off is given here; in the data, active means activation above about 8.4%; inactive means the rest.

`CCC(C)N(CC(C)C)C(=S)SC(NC(C)=O)C(Cl)(Cl)Cl` (stereo unspecified): the activation was inactive: -1.41%.

The values above are taken from PubChem BioAssay AID864 (The Scripps Research Institute Molecular Screening Center, 2007).
